# Antibody variant affinities, Ab-14 heavy chain, assay B

Target: peptide PDVDLGDISGINAS, taken from heptad repeat 2 (HR2) of SARS-CoV-2 spike.

Ab-14 is the parent antibody, in scFv form: VH, then a (GGGGS)3 linker, then VL. The light chain is unchanged in all variants.
VH: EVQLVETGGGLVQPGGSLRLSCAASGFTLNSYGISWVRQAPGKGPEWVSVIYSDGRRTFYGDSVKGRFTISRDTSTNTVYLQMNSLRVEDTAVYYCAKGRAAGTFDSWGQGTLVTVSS
VL: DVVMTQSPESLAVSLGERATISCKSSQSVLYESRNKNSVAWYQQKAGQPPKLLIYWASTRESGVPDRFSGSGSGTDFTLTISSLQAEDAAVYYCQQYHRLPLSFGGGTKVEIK

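Phage display of a naive human antibody library on the peptide gave the parent. The variants were designed computationally from a first round of random CDR variants and then made and measured. Group labels follow the data file (Ctrl: baseline library sampled from a position-specific scoring matrix, with some repeated check sequences; Rand: our label for a block that the file lists under HC and that is probably the random mutants of the ten best first-round binders; En: ensemble of fine-tuned language models; GP: Gaussian process model; GPLM: also part of the Gaussian process libraries; HC: hill climbing; Gen: genetic algorithm; Gibbs: Gibbs sampling; a sequence that several methods proposed may carry one label only). In AlphaSeq, yeast of one mating type display the scFv and yeast of the other type display the target. Mating (16 h, 30 °C) was followed by selection of diploids and sequencing of their barcodes. Each replicate has its own calibration line, from reference interactions of the BCL2 family. Mating was done six times.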

Each variant is given by its three heavy chain CDRs, as the data file delimits them; those of the parent are GFTLNSYGIS, VIYSDGRRTFYGDSVK, GRAAGTFDS. The read-out is the apparent dissociation constant on a log10 scale (nM): the lower, the stronger. A mean of the replicates is given; it leaves out those without a signal. A pair that was not seen in that replicate is written "ND"; this usually means weak binding, but a binder can also be missed. The range of this assay differs from that of the first round, and the authors advise against merging the two.

CDR-H1	CDR-H2	CDR-H3	group	log10 Kd (nM) by replicate	log10 Kd (nM), mean
GFNLNEYGIS	VIYSDGRRTFYTDSVK	GRTAGTFDS	GPLM_HC	ND ND ND ND ND ND	ND
GFDLNEYGIS	VIYADGVRKAYADDVK	GNVAGTFDL	En_Gen	-0.80 -0.55 -0.45 -0.63 -0.56 -0.07	-0.51
GNDLDEVGIS	VIYADGVRNQYIQSVK	GHNAGTFDY	En_Gibbs	ND ND ND ND ND ND	ND
GFTLNDYGVS	VIYSDGRRTFYGDQVK	GRAAGTFDV	Ctrl	ND ND 0.67 0.93 1.27 0.18	0.76
GFTLNSYGIS	VIYSDGRRTFYTDSVK	GRAHGTCDS	Rand	ND ND ND ND ND ND	ND
GFDLSEYGIS	VIYADGRRASYTDAVK	GQVEGMLDV	En_Gibbs	ND 0.79 ND ND ND ND	0.79
GFTLNEYGIS	VIYSDGRRTFYGDSVK	GRAAGTFIS	GPLM_HC	ND ND ND ND ND ND	ND
GFALDEYGIS	VIYADGSRSAYTSSVK	GVHNGDINI	En_Gibbs	ND ND ND ND ND ND	ND
GFDLNSYGIS	VIYSDGRRTFYGDSVK	GQTAGTFDE	GP_Gen	0.08 -0.12 0.21 -0.08 -0.12 0.05	0.00
GFDLKEYGIS	VIYADGVRTHYADDVK	GKHTGTNMA	En_Gibbs	ND ND ND ND ND ND	ND
GYDLNEYGIS	VIYADGRRAATINQVK	GSNSFTFDL	En_Gibbs	ND ND ND ND ND ND	ND
GFTLNSYGIS	VIYSDGRRTFYLNSVK	GRAARTFDS	Ctrl	ND ND ND ND ND ND	ND
GFDLEEMGIN	VIYADGSRKVYTDAVK	GEVSGDFDK	En_Gibbs	ND ND ND -0.16 ND ND	-0.16
GFSLDEYGIS	VIYADGIRQHYSDQVK	GVKNGNVIM	En_Gibbs	ND ND ND ND ND ND	ND
GNTLDSYGIS	VIYSDGRRTFYGDSVK	GRATGTALS	Rand	ND ND ND ND ND ND	ND
GFTLNSQGIS	VIYSDGRRTIYGDSVK	GRAAGTFDS	Ctrl	ND ND ND ND ND ND	ND
GFNLDEYGIS	VIYADGRRTAYADSVK	GSHAGTFDT	En_HC	-1.01 -0.97 -0.42 -1.50 -1.26 -1.26	-1.07
GFDLSEYGIS	VIYADGRRTFYTDSVK	GEIAGTFDE	En_HC	-0.47 -0.47 -0.72 -0.62 -0.51 -0.53	-0.55
GFTLNSYGIS	VIYSDGVRTFYGDSVK	GRATGTFDS	Ctrl	ND ND ND ND ND ND	ND

The remaining entries, values ahead:

log10 Kd (nM) by replicate	log10 Kd (nM), mean	CDR-H1	CDR-H2	CDR-H3	group
0.32 -0.12 ND -0.87 0.34 0.84	0.10	GFELNSYGIS	VIYSDGRRTFYDDSVK	GRTAGTFDS	GPLM_Gibbs
-0.61 -0.64 -0.80 -1.02 -0.80 -0.65	-0.75	GFDLNEYGIS	VIYADGRRTFYTDSVK	GQWAGTFDV	En_HC
ND ND ND ND ND ND	ND	GFTLNSYGIS	VIYSDGRRTFYNDSVK	GRAAGTFES	Ctrl
1.15 0.67 0.51 0.80 0.35 1.86	0.89	GFTLNEYGIS	VIYSDGERTFYGDSVK	GGAAGTFDS	Ctrl
ND ND ND ND ND 2.43	2.43	GFTLNDYGIS	VIYSDGRRTFYGDSVK	GRTAGTFWS	GPLM_Gen
1.22 1.51 1.90 1.45 0.75 ND	1.36	GFELNDYGIS	VIYSDGRRTEYMDSVK	GRAAGTFDS	GP_HC
0.63 1.25 1.03 1.14 1.34 1.48	1.15	GFTLNEYGIS	VIYSDGRRTFYGDSVK	GHAAGTFDE	GP_HC
ND ND ND ND ND ND	ND	NFSLNSYGIS	VIYSDGRRTFYTDSVK	GQTAGTFDS	GP_Gibbs
-0.15 0.09 -0.40 -0.45 -0.70 -0.29	-0.32	GFDLNEYGIS	VIYADGMRTFYSDSVK	GTNAGTFDI	En_HC
-0.24 -0.43 -0.43 -0.53 -0.49 -0.52	-0.44	GFDLNEYGIS	VIYADGRRTYYADSVK	GQIAGTFDQ	En_HC
ND ND ND ND ND ND	ND	GFHLNKYGIS	VIYSDGRRTFYGDSVK	GRAAGFFDS	Ctrl
1.19 1.47 0.43 0.99 0.67 1.13	0.98	GFELNSYGIS	VIYSDGRRTFYGDSVK	GVNAGTFDS	GPLM_Gibbs
ND ND ND ND ND ND	ND	GFSLNSYGIS	VIYRDGRRTFYEDFVK	GRAAGTFDP	Ctrl
0.03 0.66 0.48 1.02 1.19 2.33	0.95	GFTLNSYGIS	VIYSDGRRTFYGDSVK	GFEAGTFDS	Ctrl
-0.74 -0.84 -0.96 -1.17 -1.15 -1.09	-0.99	GFDLNEYGIS	VIYADGKRTVYADSVK	GNQAGTFDV	En_Gen
ND ND ND ND ND ND	ND	GFTLNSYSIS	VIYSDGRRTFYGDSVK	GRAAGTFDS	Ctrl
ND ND 1.17 1.07 1.97 1.79	1.50	GFDLNSYGIS	VIYSDGRRTFYGDSVK	GHAAGTFNS	GP_HC
ND ND ND ND ND ND	ND	GFKLNSYGIS	VIYSDGRRTFYDDSVK	GQAAGTFDS	GP_HC
0.60 -0.51 -0.44 -0.36 0.47 -0.25	-0.08	GFTLNEYGIS	VIYSDGRRTFYTDSVK	GRTAGMFDS	GPLM_HC

Extract of 4 entries:

CDR-H1	CDR-H2	CDR-H3	group	log10 Kd (nM) by replicate	log10 Kd (nM), mean
GFNLDEYGIS	VIYADGRRTAYADSVK	GSHAGTFDT	En_HC	-1.01 -0.97 -0.42 -1.50 -1.26 -1.26	-1.07
GFDLKEYGIS	VIYADGVRTHYADDVK	GKHTGTNMA	En_Gibbs	ND ND ND ND ND ND	ND
NFSLNSYGIS	VIYSDGRRTFYTDSVK	GQTAGTFDS	GP_Gibbs	ND ND ND ND ND ND	ND
GFELNSYGIS	VIYSDGRRTFYDDSVK	GRTAGTFDS	GPLM_Gibbs	0.32 -0.12 ND -0.87 0.34 0.84	0.10

In the paper, a design with two or fewer of six values counts as a poor binder. Empty control strains, which show no peptide, gave a signal in 1% of pairings with all heavy chain designs; the median was 2.08 and 95% of these signals were weaker than 0.84. No background was subtracted.

Data: MIT Lincoln Laboratory AlphaSeq set, Li et al. 2023, doi:10.1038/s41467-023-39022-2, as distributed in FLAb.